Measured values taken from IntAct's records for PubMed 21220120.

What follows are substances tested against rbbp5_human RBBP5 (UniProt Q15291).

effect of a mutation on the interaction | Substance
disrupting interaction | WD repeat-containing protein 5 (Homo sapiens) (from UniProt P61964) L240K
disrupting interaction | WD repeat-containing protein 5 (Homo sapiens) (from UniProt P61964) N225A
decreasing interaction | WD repeat-containing protein 5 (Homo sapiens) (from UniProt P61964) Q289A
